# Tested on: SW620 cells
# Assay: Stimulation of SW620 cells with Notch ligands (co-culture or plate-bound) for EMT induction
# Assay type: cell-based, human
# Conditions: exogenous ligand in trans by co-culture or plate-bound; data not shown
# Text: SW620 cells express the Notch ligands Jagged1 and Jagged2 (FIG. 11D), yet are not undergoing EMT. Given the apparent role of Notch signaling in the EMT induced by β2, we investigated whether Notch ligands from the Jagged or Delta-like families could induce EMT. Cells were stimulated by exogenous addition of the ligands Jagged1 or DLL1 in various formats, including in trans by co-culture with ligand-expressing cells or using plate-bound ligand, but no evidence of EMT was observed under any of the conditions used (data not shown). As a positive control, co-culture of Notch ligand-expressing cells with 3T3 cells transfected with Notch1 produced evidence of Notch pathway signaling as determined by a luciferase reporter assay from a CSL-binding promoter construct (data not shown).
molecule,measurement,value
"DLL1: Notch ligand of the Delta-like family, added exogenously (co-culture or plate-bound) (protein, UniProt O00548 18-723, looked up) Delta-like protein 1: QVWSSGVFELKLQEFVNKKGLLGNRNCCRGGAGPPPCACRTFFRVCLKHYQASVSPEPPCTYGSAVTPVLGVDSFSLPDGGGADSAFSNPIRFPFGFTWPGTFSLIIEALHTDSPDDLATENPERLISRLATQRHLTVGEEWSQDLHSSGRTDLKYSYRFVCDEHYYGEGCSVFCRPRDDAFGHFTCGERGEKVCNPGWKGPYCTEPICLPGCDEQHGFCDKPGECKCRVGWQGRYCDECIRYPGCLHGTCQQPWQCNCQEGWGGLFCNQDLNYCTHHKPCKNGATCTNTGQGSYTCSCRPGYTGATCELGIDECDPSPCKNGGSCTDLENSYSCTCPPGFYGKICELSAMTCADGPCFNGGRCSDSPDGGYSCRCPVGYSGFNCEKKIDYCSSSPCSNGAKCVDLGDAYLCRCQAGFSGRHCDDNVDDCASSPCANGGTCRDGVNDFSCTCPPGYTGRNCSAPVSRCEHAPCHNGATCHERGHRYVCECARGYGGPNCQFLLPELPPGPAVVDLTEKLEGQGGPFPWVAVCAGVILVLMLLLGCAAVVVCVRLRLQKHRPPADPCRGETETMNNLANCQREKDISVSIIGATQIKNTNKKADFHGDHSADKNGFKARYPAVDYNLVQDLKGDDTAVRDAHSKRDTKCQPQGSSGEEKGTPTTLRGGEASERKRPDSGCSTSKDTKYQSVYVISEEKDECVIATEV",Induction of EMT or related morphological change,no evidence of induction of EMT or related morphological change
